{"source": "paper PMC4169866", "about": "(Investigational New Drugs, 2014)", "key": {"Calu-6 lung xenografts": {"system": "Calu-6 lung xenografts", "assay": "Subcutaneous Calu-6 xenograft antitumor activity", "assay_type": "in vivo, mice", "conditions": "50 mg/kg LY2835219 oral, 60 or 150 mg/kg gemcitabine i.p."}, "[1]": {"system": "Colo-205 colorectal xenografts", "assay": "Subcutaneous colo-205 xenograft antitumor activity", "assay_type": "in vivo, mice", "conditions": "colo-205, 56 days, either schedule"}, "DYRK2": {"target": "T1, DYRK2 (Homo sapiens, UniProt Q92630)", "T1 sequence (Q92630 1-601)": "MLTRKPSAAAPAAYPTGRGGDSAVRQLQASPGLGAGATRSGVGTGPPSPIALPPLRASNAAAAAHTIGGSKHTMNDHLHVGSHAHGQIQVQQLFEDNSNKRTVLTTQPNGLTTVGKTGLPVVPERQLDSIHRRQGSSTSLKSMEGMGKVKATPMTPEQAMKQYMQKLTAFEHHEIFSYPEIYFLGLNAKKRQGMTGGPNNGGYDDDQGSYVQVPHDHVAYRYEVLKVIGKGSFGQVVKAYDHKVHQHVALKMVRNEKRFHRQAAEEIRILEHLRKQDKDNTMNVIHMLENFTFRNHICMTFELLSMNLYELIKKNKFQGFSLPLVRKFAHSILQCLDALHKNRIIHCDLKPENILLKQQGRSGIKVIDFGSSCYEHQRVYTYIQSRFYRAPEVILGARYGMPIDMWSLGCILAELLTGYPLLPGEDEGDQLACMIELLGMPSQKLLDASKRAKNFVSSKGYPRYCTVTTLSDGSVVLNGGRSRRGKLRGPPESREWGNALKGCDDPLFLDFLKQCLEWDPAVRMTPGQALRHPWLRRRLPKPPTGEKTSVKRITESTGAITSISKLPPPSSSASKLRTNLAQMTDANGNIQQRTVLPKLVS", "assay": "Millipore (UBI) kinase panel DYRK2", "conditions": "read-out: IC50 DYRK2; generated at millipore (UBI) kinase panel"}}}
{"smiles": "CCN1CCN(Cc2ccc(Nc3ncc(F)c(-c4cc(F)c5nc(C)n(C(C)C)c5c4)n3)nc2)CC1", "note": "[LY2835219, [5-(4-Ethyl-piperazin-1-ylmethyl)-pyridin-2-yl]-[5-fluoro-4-(7-fluoro-3-isopropyl-2-methyl-3H-benzoimidazol-5-yl)-pyrimidin-2-yl]-amine]", "values": [{"measurement": "tumor growth inhibition, compound alone", "setting": "Calu-6 lung xenografts", "value": "active in inhibiting tumor growth"}, {"measurement": "tumor outgrowth with prolonged treatment (acquired resistance)", "setting": "[1]", "value": "No tumor outgrowth"}, {"measurement": "IC50", "setting": "DYRK2", "value": 61, "unit": "nM"}]}
